# Results as given in US20240002522A1 (INSERM INSTITUT NATIONAL DE LA SANTE ET DE LA RECHERCHE …, published 2024).
# T1: human CD25 (human, UniProt P01589 22-272)
# T1 construct: In the functional assays it was native on T cells or SUDHL-1 cells; also called huCD25; hCD25
# T1 sequence: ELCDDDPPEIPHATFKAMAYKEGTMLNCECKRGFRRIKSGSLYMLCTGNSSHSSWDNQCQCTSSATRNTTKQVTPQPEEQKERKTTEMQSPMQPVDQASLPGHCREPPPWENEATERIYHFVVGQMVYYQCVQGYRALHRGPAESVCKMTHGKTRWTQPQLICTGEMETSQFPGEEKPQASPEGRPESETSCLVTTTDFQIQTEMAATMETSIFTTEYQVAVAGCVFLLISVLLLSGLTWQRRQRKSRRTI
# B1: Basiliximab (antibody, V domains shown)
# VH: QVQLQQSGTVLARPGASVKMSCKASGYSFTRYWMHWIKQRPGQGLEWIGAIYPGNSDTSYNQKFEGKAKLTAVTSASTAYMELSSLTHEDSAVYYCSRDYGYYFDFWGQGTTLTVSS
# VL: QIVSTQSPAIMSASPGEKVTMTCSASSSRSYMQWYQQKPGTSPKRWIYDTSKLASGVPARFSGSGSGTSYSLTISSMEAEDAATYYCHQRSSYTFGGGTKLEIK
# Molecular target: T1, human CD25
# Assay: flow cytometry on HEK293 cells transiently transfected with huCD25; 3-fold dilutions from 500 nM; detection with anti-mouse IgG-APC
binder,measurement,value
B1,EC50 (read off the curve),~0.9 nM
